Results from patent publication US20240024333A1, “USE OF SMALL MOLECULE FAK ACTIVATORS TO PROMOTE MUCOSAL HEALING” (Regents of the University of Minnesota, priority 2020, published 2024).
Entries after “also recorded” stand apart in the source; their conditions may differ.

Protein sequences, listed by entry. Tags and fused reporters are not part of them. Residues count along the entry.
UniProt Q05397, whole entry: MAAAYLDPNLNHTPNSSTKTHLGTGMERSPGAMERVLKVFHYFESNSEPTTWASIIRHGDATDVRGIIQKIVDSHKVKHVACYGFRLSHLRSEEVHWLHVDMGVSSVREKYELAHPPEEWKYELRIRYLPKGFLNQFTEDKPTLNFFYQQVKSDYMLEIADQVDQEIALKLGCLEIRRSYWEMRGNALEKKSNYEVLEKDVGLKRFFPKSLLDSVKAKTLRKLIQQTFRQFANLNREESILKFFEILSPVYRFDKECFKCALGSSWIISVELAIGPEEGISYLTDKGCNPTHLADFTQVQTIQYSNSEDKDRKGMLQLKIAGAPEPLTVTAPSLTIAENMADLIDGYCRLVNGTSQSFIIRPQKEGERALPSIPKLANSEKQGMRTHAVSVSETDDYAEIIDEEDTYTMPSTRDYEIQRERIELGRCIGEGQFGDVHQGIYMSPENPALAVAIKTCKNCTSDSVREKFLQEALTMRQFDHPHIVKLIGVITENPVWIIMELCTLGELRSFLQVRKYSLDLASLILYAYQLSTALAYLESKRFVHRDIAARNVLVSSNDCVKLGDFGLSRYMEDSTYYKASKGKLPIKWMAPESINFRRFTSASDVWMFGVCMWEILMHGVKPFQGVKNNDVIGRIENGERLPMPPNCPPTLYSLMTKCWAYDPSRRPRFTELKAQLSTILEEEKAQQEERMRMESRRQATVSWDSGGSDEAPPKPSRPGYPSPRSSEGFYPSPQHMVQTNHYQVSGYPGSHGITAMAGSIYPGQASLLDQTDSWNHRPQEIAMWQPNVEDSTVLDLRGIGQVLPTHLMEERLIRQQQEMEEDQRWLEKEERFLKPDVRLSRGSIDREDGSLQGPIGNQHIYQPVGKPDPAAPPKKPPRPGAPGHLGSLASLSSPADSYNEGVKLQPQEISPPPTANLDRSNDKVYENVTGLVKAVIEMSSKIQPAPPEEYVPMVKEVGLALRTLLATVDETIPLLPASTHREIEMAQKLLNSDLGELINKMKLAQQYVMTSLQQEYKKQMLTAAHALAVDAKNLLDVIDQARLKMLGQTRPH
UniProt Q05397, 422-680 limits assumed: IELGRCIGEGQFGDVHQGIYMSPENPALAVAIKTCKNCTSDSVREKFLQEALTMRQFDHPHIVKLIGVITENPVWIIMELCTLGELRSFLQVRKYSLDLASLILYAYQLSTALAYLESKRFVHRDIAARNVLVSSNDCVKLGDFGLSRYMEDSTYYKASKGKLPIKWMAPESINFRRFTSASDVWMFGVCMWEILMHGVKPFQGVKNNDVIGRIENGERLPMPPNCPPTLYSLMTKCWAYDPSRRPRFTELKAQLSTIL
UniProt Q14289, whole entry: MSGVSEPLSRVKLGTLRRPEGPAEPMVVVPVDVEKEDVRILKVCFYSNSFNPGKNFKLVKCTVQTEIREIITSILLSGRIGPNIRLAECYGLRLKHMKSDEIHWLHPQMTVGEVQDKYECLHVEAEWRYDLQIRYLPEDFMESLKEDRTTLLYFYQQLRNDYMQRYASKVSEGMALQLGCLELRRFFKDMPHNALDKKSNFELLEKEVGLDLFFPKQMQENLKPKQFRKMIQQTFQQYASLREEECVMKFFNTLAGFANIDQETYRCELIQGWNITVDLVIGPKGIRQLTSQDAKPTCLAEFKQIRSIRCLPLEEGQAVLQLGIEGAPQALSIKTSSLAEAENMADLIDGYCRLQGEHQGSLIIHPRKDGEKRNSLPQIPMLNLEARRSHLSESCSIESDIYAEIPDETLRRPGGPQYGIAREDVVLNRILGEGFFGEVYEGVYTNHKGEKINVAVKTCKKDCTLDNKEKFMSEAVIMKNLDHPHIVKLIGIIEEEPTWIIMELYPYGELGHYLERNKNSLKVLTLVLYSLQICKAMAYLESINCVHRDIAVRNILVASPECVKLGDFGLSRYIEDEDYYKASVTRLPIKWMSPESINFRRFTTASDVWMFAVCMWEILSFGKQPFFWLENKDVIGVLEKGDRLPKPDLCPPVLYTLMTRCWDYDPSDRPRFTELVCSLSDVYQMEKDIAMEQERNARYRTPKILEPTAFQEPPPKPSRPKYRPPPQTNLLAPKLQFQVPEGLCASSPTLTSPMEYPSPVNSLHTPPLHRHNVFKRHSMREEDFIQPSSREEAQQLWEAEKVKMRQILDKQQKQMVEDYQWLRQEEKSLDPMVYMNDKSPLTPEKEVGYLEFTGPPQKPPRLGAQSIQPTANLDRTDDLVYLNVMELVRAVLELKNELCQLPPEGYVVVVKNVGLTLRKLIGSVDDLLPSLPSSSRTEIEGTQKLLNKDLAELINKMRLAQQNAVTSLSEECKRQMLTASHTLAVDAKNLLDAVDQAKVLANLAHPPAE

Columns and labels:
FAK = target: T1, FAK (Homo sapiens, UniProt Q05397); test: Cell-based FAK-Tyr-397 activation (Western blot, Caco-2 cells); conditions: for FAK activation / FAK-Tyr-397 phosphorylation (in words): vs. DMSO vehicle control
T1 construct: Suspended cells were then treated with DMSO (0.1%) or small molecules for 1 hour before harvesting for Western blotting; endogenous in cells; host or cells: Caco-2 (human, ATCC)

Pyk2 = target: T2, Pyk2 (Homo sapiens, UniProt Q14289); test: Pyk2 activation in intact cells; assay type: cell-based
T2 construct: endogenous in cells; host or cells: Caco-2

[1] = tested on: ischemic ileal mucosal ulcers; test: Ischemic ileal ulcer model (acetic-acid-soaked discs on serosa); design: species or system mice; conditions: in vivo
[2] = B/P ratio and blood-brain barrier crossing; assay type: in vivo; conditions: 2 h
mice = conditions: mouse, in vivo
FAK 35 kD kinase domain = FAK 35 kD kinase domain (Homo sapiens, UniProt Q05397); test: In vitro kinase assay with purified FAK kinase domain
Src = target: T3, Src (Homo sapiens, UniProt P12931); test: Src activation in intact cells; assay type: cell-based
T3 construct: endogenous in cells; host or cells: Caco-2

Row | SMILES | FAK activation / FAK-Tyr-397 phosphorylation (in words) (FAK) | Selectivity against relative off-targets: no Pyk2 activation at multiple of FAK activation (Pyk2) | Mouse therapeutic dose [1] | EC50 (FAK) | concentration level of FAK activation (in words) (FAK) | concentration as low as which FAK is activated (FAK; Caco-2 cells) | B/P ratio [2] | Therapeutic Index (mice) | Vmax of FAK kinase domain (in words) (FAK 35 kD kinase domain; ATP-ADP conversion / ATP-binding) | ATP to ADP conversion by / activation of FAK kinase domain (in words) (FAK 35 kD kinase domain; purified protein) | Selectivity against relative off-targets: no Src activation at multiple of FAK activation (Src)
1 | CN(C)C(CNC(=O)Nc1cc(C(F)(F)F)ccc1N1CCOCC1)c1ccncc1 (stereo not drawn) [Compound 39] | ineffective |  |  |  |  |  |  |  |  |  | 
2 | CN(C)C(CNC(=O)Nc1cc(C(F)(F)F)ccc1N1CCOCC1)c1ccncc1 (stereo not drawn) [Compound 40] | activates FAK in intact cells; also recorded: activates FAK within Caco-2 cells | activation at >1000 × × FAK activation | <15 mg/kg/day | < 10 nM | picomolar concentrations | 100 pM | B/P ratio <0.15 | Index: ~10^6 | increases its Vmax | activates FAK directly | activation at >1000 × × FAK activation
